In patent US20260184708A1, “PYRIDAZINONES AND METHODS OF USE THEREOF” (GFB (ABC), LLC, priority 2017, published 2026):
Like-named read-outs stand apart in the source and are kept apart here.

Amino acid sequences for entries named in this document (tags omitted). Residues count along the entry.
UniProt Q9UL62, whole entry: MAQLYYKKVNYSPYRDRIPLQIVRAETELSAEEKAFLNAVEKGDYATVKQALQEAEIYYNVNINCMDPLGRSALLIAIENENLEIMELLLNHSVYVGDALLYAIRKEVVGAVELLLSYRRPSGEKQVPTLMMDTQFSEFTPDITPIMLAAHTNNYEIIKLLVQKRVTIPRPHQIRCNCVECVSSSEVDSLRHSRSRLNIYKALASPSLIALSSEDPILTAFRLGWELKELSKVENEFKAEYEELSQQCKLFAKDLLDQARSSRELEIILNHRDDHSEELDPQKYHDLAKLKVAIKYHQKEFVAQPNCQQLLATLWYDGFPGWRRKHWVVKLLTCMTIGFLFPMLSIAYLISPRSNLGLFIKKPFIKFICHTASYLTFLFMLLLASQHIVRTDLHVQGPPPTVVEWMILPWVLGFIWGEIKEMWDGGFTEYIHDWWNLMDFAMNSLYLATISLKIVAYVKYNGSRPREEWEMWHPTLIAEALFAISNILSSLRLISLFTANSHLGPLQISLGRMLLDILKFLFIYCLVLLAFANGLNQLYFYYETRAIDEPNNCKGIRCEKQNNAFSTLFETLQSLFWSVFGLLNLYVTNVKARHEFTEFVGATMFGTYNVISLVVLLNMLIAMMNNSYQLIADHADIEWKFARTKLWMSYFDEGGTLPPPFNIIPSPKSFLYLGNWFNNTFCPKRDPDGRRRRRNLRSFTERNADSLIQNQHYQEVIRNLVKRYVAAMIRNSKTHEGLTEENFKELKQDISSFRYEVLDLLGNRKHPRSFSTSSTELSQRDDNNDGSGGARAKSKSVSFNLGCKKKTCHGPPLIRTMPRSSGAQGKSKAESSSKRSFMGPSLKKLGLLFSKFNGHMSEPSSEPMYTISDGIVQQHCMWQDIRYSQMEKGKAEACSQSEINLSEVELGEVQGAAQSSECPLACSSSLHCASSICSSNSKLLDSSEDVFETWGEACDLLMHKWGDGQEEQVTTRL
UniProt Q9UBN4, 1-982 isoform 5: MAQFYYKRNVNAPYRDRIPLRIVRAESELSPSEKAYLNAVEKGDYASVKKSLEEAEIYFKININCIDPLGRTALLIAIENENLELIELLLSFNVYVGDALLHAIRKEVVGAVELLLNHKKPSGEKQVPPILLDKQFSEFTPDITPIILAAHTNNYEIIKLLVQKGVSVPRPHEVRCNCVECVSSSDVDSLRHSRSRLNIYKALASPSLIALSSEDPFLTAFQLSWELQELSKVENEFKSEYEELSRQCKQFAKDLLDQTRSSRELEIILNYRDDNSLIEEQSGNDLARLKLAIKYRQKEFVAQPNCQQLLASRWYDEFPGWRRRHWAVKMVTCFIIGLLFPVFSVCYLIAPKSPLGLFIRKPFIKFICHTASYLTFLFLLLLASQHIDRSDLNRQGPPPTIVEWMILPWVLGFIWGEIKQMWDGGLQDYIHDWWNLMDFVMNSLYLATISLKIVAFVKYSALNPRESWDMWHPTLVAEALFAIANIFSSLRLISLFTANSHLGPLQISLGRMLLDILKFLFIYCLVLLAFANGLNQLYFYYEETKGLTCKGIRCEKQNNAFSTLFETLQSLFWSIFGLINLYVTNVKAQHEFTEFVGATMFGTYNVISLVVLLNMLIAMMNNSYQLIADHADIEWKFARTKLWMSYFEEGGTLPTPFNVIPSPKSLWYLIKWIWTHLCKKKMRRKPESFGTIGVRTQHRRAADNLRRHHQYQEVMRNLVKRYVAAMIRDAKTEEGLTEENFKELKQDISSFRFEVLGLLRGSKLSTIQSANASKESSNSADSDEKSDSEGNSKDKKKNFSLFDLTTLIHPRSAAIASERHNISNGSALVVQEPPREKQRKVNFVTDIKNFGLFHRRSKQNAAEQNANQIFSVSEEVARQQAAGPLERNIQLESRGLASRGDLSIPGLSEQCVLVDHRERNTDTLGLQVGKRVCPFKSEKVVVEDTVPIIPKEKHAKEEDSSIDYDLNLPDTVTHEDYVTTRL

Tests used:
TRPC5 = TRPC5 (Homo sapiens, UniProt Q9UL62); assay: TRPC5 automated patch clamp assay (Qpatch), current block after rosiglitazone stimulation
TRPC4 = TRPC4 (Homo sapiens, UniProt Q9UBN4); assay: TRPC4 FLIPR Assay (HEK-TREx hTRPC4, Englerin A stimulation); conditions: read-out: TRPC4 FLIPR IC50, Table 8
[1] = read-out: TRPC5_QP_ XC50_80, Table 5, HEK293 cells overexpressing TRPC5, 80 mV
[2] = read-out: TRPC5_QP_ XC50_100, Table 5, HEK293 cells overexpressing TRPC5, 100 mV

IC50 (TRPC5; [1]) | IC50 (TRPC5; [2]) | IC50 (TRPC4) | IC50 (TRPC5; read-out: TRPC5_QP_ XC50_80, Table 4, HEK293 cells overexpressing TRPC5, 80 mV) | IC50 (TRPC5; read-out: TRPC5_QP_ XC50_100, Table 4, HEK293 cells overexpressing TRPC5, 100 mV) | SMILES
10 to 500 µM | 10 to 500 µM | – | – | – | O=C1CN(c2c(Br)n[nH]c(=O)c2Cl)CCN1Cc1ccc(F)cc1C(F)(F)F
– | – | 0.01 to 1000 nM | – | – | CCc1ncccc1[C@H](C)N1CCN(c2cn[nH]c(=O)c2Cl)[C@H](C)C1
– | – | – | 1 to 5 µM | 1 to 5 µM | Cc1ccccc1[C@H](C)N1CCN(c2cn[nH]c(=O)c2Cl)CC1

Further lines, the molecule ahead of its results:

SMILES | IC50 (TRPC5; [1]) | IC50 (TRPC5; [2]) | IC50 (TRPC4) | IC50 (TRPC5; read-out: TRPC5_QP_ XC50_80, Table 4, HEK293 cells overexpressing TRPC5, 80 mV) | IC50 (TRPC5; read-out: TRPC5_QP_ XC50_100, Table 4, HEK293 cells overexpressing TRPC5, 100 mV)
O=C1CN(c2c(Br)n[nH]c(=O)c2Cl)CCN1Cc1ccccc1OC(F)(F)F | 10 to 500 µM | 10 to 500 µM | – | – | –
O=C1CN(c2c(Cl)cn[nH]c2=O)CCN1Cc1ccc(F)cc1C(F)(F)F | 10 to 500 µM | 10 to 500 µM | – | – | –
O=C1CN(c2c(Cl)cn[nH]c2=O)CCN1Cc1ccc(C(F)(F)F)cc1 | 10 to 500 µM | 10 to 500 µM | – | – | –
O=C1CN(c2c(Cl)cn[nH]c2=O)CCN1Cc1ccccc1C(F)(F)F | 5 to 10 µM | 5 to 10 µM | – | – | –
